Reference: PubChem BioAssay (NCATS)
“And” between values parts separate entries of the source, which are not always exact repeats. Equal values may be shown once. The list shows a part of the results, in another mix than the full data. Records with an inconclusive call do not appear. The source made the active and inactive calls. Unless noted, calls follow the shape of the full dose curve.

Amino acid sequences for entries named in this document (tags omitted).
UniProt Q03181, whole entry: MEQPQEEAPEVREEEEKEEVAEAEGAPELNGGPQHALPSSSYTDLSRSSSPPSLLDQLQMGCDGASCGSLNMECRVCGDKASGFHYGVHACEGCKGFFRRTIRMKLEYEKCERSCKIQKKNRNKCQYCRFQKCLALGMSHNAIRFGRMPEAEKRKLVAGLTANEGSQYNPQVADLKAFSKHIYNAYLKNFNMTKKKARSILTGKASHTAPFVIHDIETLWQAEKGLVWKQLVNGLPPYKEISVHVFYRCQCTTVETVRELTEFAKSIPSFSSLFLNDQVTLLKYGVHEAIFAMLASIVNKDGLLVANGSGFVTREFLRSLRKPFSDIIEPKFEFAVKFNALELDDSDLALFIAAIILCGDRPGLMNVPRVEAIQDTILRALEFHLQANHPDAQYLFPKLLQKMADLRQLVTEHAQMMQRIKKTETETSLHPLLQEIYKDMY
UniProt P10828, whole entry: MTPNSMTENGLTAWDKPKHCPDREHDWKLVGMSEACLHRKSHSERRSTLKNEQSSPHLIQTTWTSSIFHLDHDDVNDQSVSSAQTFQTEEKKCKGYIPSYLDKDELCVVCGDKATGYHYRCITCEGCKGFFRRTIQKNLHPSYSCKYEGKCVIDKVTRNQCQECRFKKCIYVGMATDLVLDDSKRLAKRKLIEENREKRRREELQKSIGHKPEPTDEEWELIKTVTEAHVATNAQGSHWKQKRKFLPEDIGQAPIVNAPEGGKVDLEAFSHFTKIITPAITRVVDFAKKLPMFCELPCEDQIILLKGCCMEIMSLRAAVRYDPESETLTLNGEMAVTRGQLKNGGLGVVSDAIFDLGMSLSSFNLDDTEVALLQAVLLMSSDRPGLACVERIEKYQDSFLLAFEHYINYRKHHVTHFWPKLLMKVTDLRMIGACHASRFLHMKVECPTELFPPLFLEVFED

How the values were obtained:
[1] = target: Peroxisome proliferator-activated receptor delta (Homo sapiens) (UniProt Q03181); test: qHTS assay for small molecule agonists of peroxisome proliferator-activated receptor delta signaling (AID 588534); conditions: HEK293T PPARdelta-UAS-bla, beta-lactamase ratio, 18 h; at 76.7 µM (top of the series);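 also: 0% = DMSO basal wells and 100% = positive control agonist at 10 µM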
[2] = target: Peroxisome proliferator-activated receptor delta (Homo sapiens) (UniProt Q03181); test: qHTS assay for small molecule antagonists of peroxisome proliferator-activated receptor delta signaling (AID 588535; active = well fitted inhibition curve with a large enough effect in the signal ratio, with a control signal flat, not every such curve was filed as active; the % refers to the signal ratio); conditions: HEK293T PPARd-UAS-bla, beta-lactamase FRET ratio, 18 h; at 76.7 µM (top of the series)
[3] = target: Peroxisome proliferator-activated receptor gamma (Homo sapiens) (UniProt P37231); test: qHTS assay for small molecule agonists of peroxisome proliferator-activated receptor gamma signaling (AID 588536; active = well fitted curve in the direction sought with a large enough effect in the signal ratio, with a control signal flat, not every such curve was filed as active; the % refers to the signal ratio;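 also: 0% = DMSO basal wells and 100% = rosiglitazone at 2 µM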); conditions: HEK293 PPARg-UAS-bla, beta-lactamase ratio, 16 h, percent of rosiglitazone response, DMSO as zero; at 76.7 µM (top of the series)
Procedure, shortened: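 Ratiometric blue/green fluorescence (405 nm excitation; 460 and 530 nm emission) from CCF4-loaded HEK293 reporter cells serves as signal. Exposure to test compounds lasts 16 h at 37 C in medium containing 1% charcoal/dextran-treated serum.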

[4] = target: Peroxisome proliferator-activated receptor gamma (Homo sapiens) (UniProt P37231); test: qHTS assay for small molecule antagonists of peroxisome proliferator-activated receptor gamma signaling (AID 588537; active = well fitted inhibition curve with a large enough effect in the signal ratio, with a control signal flat, not every such curve was filed as active; the % refers to the signal ratio;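 also: reporter cells co-stimulated with 50 nM rosiglitazone agonist during compound treatment; % of control where 0% means no effect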); conditions: HEK293 PPARg-UAS-bla, beta-lactamase ratio, antagonist mode; at 76.8 µM (top of the series)
Procedure, shortened: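 PPAR-gamma-UAS-bla HEK293 cells (3000/well, 1% charcoal/dextran-stripped FBS) were preincubated 6-6.5 h at 37 C, given titrated compounds, then stimulated with 50 nM rosiglitazone for 16 h. Beta-lactamase activity was read with CCF4 dye; IC50 came from Hill fits.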

[5] = target: Retinoic acid receptor RXR-alpha (Homo sapiens) (UniProt P19793); test: qHTS assay for small molecule agonists of retinoid X receptor alpha signaling (AID 588544); conditions: HEK293T RXRa-UAS-bla, beta-lactamase reporter, 18 h; at 76.7 µM (top of the series);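 also: 0% = DMSO basal wells and 100% = reference agonist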
[6] = target: Thyroid hormone receptor beta (Homo sapiens) (UniProt P10828); test: qHTS assay for small molecule agonists of thyroid hormone receptor beta signaling (AID 588545); conditions: TR-UAS-bla GripTite HEK 293, beta-lactamase ratio, agonist mode, 18 h, percent of T3 response, DMSO as zero; at 76.7 µM (top of the series)
Procedure, shortened: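 Agonist activity was read as beta-lactamase CCF4 fluorescence (405 ex, 460/530 em), scaled between DMSO (0%) and 10 nM T3 (100%), then Hill-fitted for EC50 and efficacy. HEK 293 TR-UAS-bla cells in 2% charcoal/dextran FBS medium were exposed 18 h at 37 C.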

[7] = target: Retinoic acid receptor RXR-alpha (Homo sapiens) (UniProt P19793); test: qHTS assay for small molecule antagonists of retinoid X receptor alpha signaling (AID 588546; active = well fitted inhibition curve with a large enough effect in the signal ratio, with a control signal flat, not every such curve was filed as active; the % refers to the signal ratio;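 also: cells stimulated with 9-cis-retinoic acid as agonist; % is scaled to controls: 0 for no effect and ±100 for the full control effect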); conditions: HEK293T RXRa-UAS-bla, beta-lactamase ratio, antagonist mode
Procedure, shortened: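 Beta-lactamase reporter inhibition, read as CCF4 fluorescence ratio (ex 405, em 460/530 nm) after 2 h at RT. HEK293T UAS-bla cells, 2500/well, were stimulated with 9-cis-RA at 500 or 100 nM final alongside test compound for 18 h at 37 C.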

[8] = target: Glucocorticoid receptor (Homo sapiens) (UniProt P04150); test: qHTS assay for small molecule antagonists of glucocorticoid receptor signaling (AID 588533; active = well fitted inhibition curve with a large enough effect in the signal ratio, with a control signal flat, not every such curve was filed as active; the % refers to the signal ratio;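 also: cells stimulated with 2 nM dexamethasone as agonist; % is scaled to controls: 0 for no effect and ±100 for the full control effect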); conditions: HeLa MMTV-bla, GRE beta-lactamase ratio, antagonist mode, 18 h; at 76.8 µM (top of the series)
[9] = target: Vitamin D3 receptor (Homo sapiens) (UniProt P11473); test: qHTS assay for small molecule antagonists of vitamin D receptor signaling (AID 588541); conditions: HEK293T VDR-UAS-bla, beta-lactamase ratio, antagonist mode; at 76.7 µM (top of the series);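 also: receptor activated by calcitriol during compound treatment; % is scaled to controls: 0 for no effect and ±100 for the full control effect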
Procedure, shortened: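 VDR-UAS-bla HEK293T cells (2000/well, 2% charcoal-stripped FBS) were treated with titrated compounds plus 1-alpha,25-dihydroxyvitamin D3 (50 nM or 3 nM final) for 16 h at 37 C. CCF4 beta-lactamase fluorescence was read; Hill fits gave IC50.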

[10] = target: Vitamin D3 receptor (Homo sapiens) (UniProt P11473); test: qHTS assay for small molecule agonists of vitamin D receptor signaling (AID 588543); conditions: HEK293T VDR-UAS-bla, beta-lactamase ratio, 16 h; at 76.8 µM (top of the series);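 also: 0% = DMSO basal and 100% = reference agonist control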
From the text: NIH Chemical Genomics Center [NCGC]
U.S. Environmental Protection Agency [EPA]
National Institutes of Environmental Health Sciences [NIEHS]
National Toxicology Program [NTP]
The Vitamin D receptor (VDR) is a member of nuclear hormone receptor superfamily and it plays a critical role in calcium homeostasis and bone metabolism. It plays a role in inducing cell differentiation, inhibiting cell growth and in thrombogenicity. So, VDR that mediates these effects represents a pharmacological target in prevention and treatment of hyperproliferative malignancies, such as cancer and psoriasis, cardiovascular, immunological, inflammatory and renal diseases etc.
NCGC Assay Protocol Summary
Using a beta-lactamase reporter-gene under control of Vitamin D receptor (VDR) response element, a cell-based assay [GeneBLAzer (VDR -UAS-bla assay developed by Invitrogen] was used to measure VDR ligands signaling. GeneBLAzer VDR -UAS-bla HEK293T cells were used with assay medium containing 2% charcoal-stripped FBS. The assay was performed in clear bottom black Greiner 1536-well plates. 1-alpha,25-Dihydroxy vitaminD3 was used as a positive control in the screen. Library compounds were measured for their ability to stimulate the reporter gene activity. Compounds were screened in a titration series in 1536-well format. […]
8. Detection; Fluorescence; Envision plate reader

CCOP(=O)(Cl)Cl
inactive: activation [1] 9.85% and 1.7% | activity change, negative = inhibition [2] -18.8% and -1.44% | activation [3] -1.03% and -0.252% | activity, negative = inhibition [4] -13.6% and 10.1% | activation [5] -5.07% and 13.9% | activation [6] -0.421% and -2.36% | max response [7] -9.82%

ClCCOP(OCCCl)OCCCl
inactive: activity change, negative = inhibition [8] -23.6% | activation [1] 16.4% | activity change, negative = inhibition [2] -15.4% | activation [3] 3.06% | activity, negative = inhibition [4] -4.04% | activity change, negative = inhibition [9] -0.313% | activation [10] 2.33% | activation [5] -3.03% | activation [6] -21.3% | max response [7] -2.68%

O=[N+]([O-])c1ccccc1[N+](=O)[O-]
inactive: activity change, negative = inhibition [8] -0.496% | activity change, negative = inhibition [2] -14% | activity change, negative = inhibition [9] -1.44% | activation [10] -3.41% | activation [6] -9.65% | max response [7] -8.12%
